Values of other authors as cited in patent US11672759B2 (priority 2017, dated 2023).

Tests used:
[1] = at 20° C.
[2] = in vivo

In the case of COc1cc2c(c(OC)c1OC)-c1ccc(OC)c(=O)cc1[C@@H](NC(C)=O)CC2 [colchicine, N-((7S)-5,6,7,9-tetrahydro-1,2,3,10-tetramethoxy-9-oxobenzo(a)heptalen-7-yl)-acetamide], the pK [1] is given as 12.35 and the “plasma levels in the therapeutic range” value [2] is given as 0.5 to 3 ng/mL.
